Assay: Storage of ADCs in mouse-plasma for 7 days at 37° C.
Format: in vitro ADME

B1: Bren. LCHC-2: Brentuximab with Tub-tag on light and heavy chains (SEQ ID NO: 11/12), 3-formyl-L-tyrosine, oxime-linked Payload 2, DAR 4 (conjugate)
heavy: QIQLQQSGPEVVKPGASVKISCKASGYTFTDYYITWVKQKPGQGLEWIGWIYPGSGNTKYNEKFKGKATLTVDTSSSTAFMQLSSLTSEDTAVYFCANYGNYWFAYWGQGTQVTVSAASTKGPSVFPLAPSSKSTSGGTAALGCLVKDYFPEPVTVSWNSGALTSGVHTFPAVLQSSGLYSLSSVVTVPSSSLGTQTYICNVNHKPSNTKVDKKV[human IgG1 Fc cut from this listing]VDSVEGEGEEEGEE
light: DIVLTQSPASLAVSLGQRATISCKASQSVDFDGDSYMNWYQQKPGQPPKVLIYAASNLESGIPARFSGSGSGTDFTLNIHPVEEEDAATYYCQQSNEDPWTFGGGTKLEIKRTVAAPSVFIFPPSDEQLKSGTASVVCLLNNFYPREAKVQWKVDNALQSGNSQESVTEQDSKDSTYSLSSTLTLSKADYEKHKVYACEVTHQGLSSPVTKSFNRGECGGGGSVDSVEGEGEEEGEE
modifications: 3-formyl-Tyr oxime Payload 2, DAR 4; Brentuximab heavy chain fused to TTL recognition sequence at C-terminus; Brentuximab light chain comprising TTL recognition sequence at C-terminus
DAR before plasma incubation (before incubation): 3.8 | DARav after plasma incubation n = 2 (mouse-plasma, 7 days at 37° C.): 3.63 | Payload lost (mouse-plasma, 7 days at 37° C.): 5%

From patent US20220193251A1, “CD30 TARGETING ANTIBODY DRUG CONJUGATES AND USES THEREOF” (Ludwig-Maximilians-Universitaet Muenchen, priority 2020, published 2022)
